{
  "source": "paper PMC9736855",
  "about": "“Discovery of 3-Amino-1H-pyrazole-Based Kinase Inhibitors to Illuminate the Understudied PCTAIRE Family” (International Journal of Molecular Sciences, 2022)",
  "key": {"AKT3": {"biological_target": "T1, AKT3 (Homo sapiens, UniProt Q9Y243)", "T1 construct": "purchased in-house DSF panel (SGC Frankfurt)", "test": "DSF", "type": "binding"}, "[1]": {"tested_on": "in-house panel of 89–105 kinases", "test": "DSF selectivity screen", "type": "binding", "details": "number of kinases of the DSF panel", "text": "To investigate the selectivity profile of the different series, a differential scanning fluorimetry (DSF) assay was used. This assay offers a rapid and sensitive screening method that determines the denaturation temperature of a protein in absence and presence of a compound. This assay format measures the fluorescence of a dye, which depends on the folding state of the protein. The difference between the melting temperature (ΔTm) in the absence and presence of the compound represents the binding strength to the protein. We used an in-house panel of 89–105 kinases to screen all synthesized inhibitors (Tables S1–S3).\n(§1) Measurements were performed in duplicates."}, "MST3": {"biological_target": "T2, MST3 (Homo sapiens, UniProt Q9Y6E0)", "T2 construct": "purchased in-house DSF panel (SGC Frankfurt)", "test": "DSF", "type": "binding"}, "NEK1": {"biological_target": "T3, NEK1 (Homo sapiens, UniProt Q96PY6)", "T3 construct": "purchased in-house DSF panel (SGC Frankfurt)", "test": "DSF", "type": "binding", "method": "as §1"}, "MAP2K1": {"biological_target": "T4, MAP2K1 (Homo sapiens, UniProt Q02750)", "T4 construct": "purchased in-house DSF panel (SGC Frankfurt)", "test": "DSF", "type": "binding", "method": "as §1"}, "DAPK3": {"biological_target": "T5, DAPK3 (Homo sapiens, UniProt O43293)", "T5 construct": "purchased in-house DSF panel (SGC Frankfurt)", "test": "DSF", "type": "binding", "method": "as §1"}, "TAF1": {"tested_on": "TAF1", "test": "DSF", "type": "binding", "method": "as §1"}, "CLK3": {"biological_target": "T6, CLK3 (Homo sapiens, UniProt P49761)", "T6 construct": "purchased in-house DSF panel (SGC Frankfurt)", "test": "DSF", "type": "binding", "method": "as §1"}, "GSG2": {"biological_target": "T7, GSG2 (Homo sapiens, UniProt Q8TF76)", "T7 construct": "purchased in-house DSF panel (SGC Frankfurt)", "test": "DSF", "type": "binding", "method": "as §1"}, "MAP3K5": {"biological_target": "T8, MAP3K5 (Homo sapiens, UniProt Q99683)", "T8 construct": "purchased in-house DSF panel (SGC Frankfurt)", "test": "DSF", "type": "binding", "method": "as §1"}, "RPS6KA6": {"tested_on": "RPS6KA6", "test": "DSF", "type": "binding", "method": "as §1"}, "PIM1": {"biological_target": "T9, PIM1 (Homo sapiens, UniProt P11309)", "T9 construct": "purchased in-house DSF panel (SGC Frankfurt)", "test": "DSF", "type": "binding", "method": "as §1"}, "MAP2K4": {"biological_target": "T10, MAP2K4 (Homo sapiens, UniProt P45985)", "T10 construct": "purchased in-house DSF panel (SGC Frankfurt)", "test": "DSF", "type": "binding", "method": "as §1"}, "MARK3": {"biological_target": "T11, MARK3 (Homo sapiens, UniProt P27448)", "T11 construct": "purchased in-house DSF panel (SGC Frankfurt)", "test": "DSF", "type": "binding", "method": "as §1"}, "CK2A2": {"biological_target": "T12, CK2A2 (Homo sapiens, UniProt P19784)", "T12 construct": "purchased in-house DSF panel (SGC Frankfurt)", "test": "DSF", "type": "binding", "method": "as §1"}, "MAPK9": {"biological_target": "T13, MAPK9 (Homo sapiens, UniProt P45984)", "T13 construct": "purchased in-house DSF panel (SGC Frankfurt)", "test": "DSF", "type": "binding", "method": "as §1"}, "MAPK15": {"biological_target": "T14, MAPK15 (Homo sapiens, UniProt Q8TD08)", "T14 construct": "purchased in-house DSF panel (SGC Frankfurt)", "test": "DSF", "type": "binding", "method": "as §1"}, "UKL3": {"biological_target": "T15, UKL3 (Homo sapiens, UniProt Q6PHR2)", "T15 construct": "purchased in-house DSF panel (SGC Frankfurt)", "test": "DSF", "type": "binding", "method": "as §1"}, "RPS6KA1": {"tested_on": "RPS6KA1", "test": "DSF", "type": "binding", "method": "as §1"}, "CAMK2D": {"biological_target": "T16, CAMK2D (Homo sapiens, UniProt Q13557)", "T16 construct": "purchased in-house DSF panel (SGC Frankfurt)", "test": "DSF", "type": "binding", "method": "as §1"}, "GPRK5": {"biological_target": "T17, GPRK5 (Homo sapiens, UniProt P34947)", "T17 construct": "purchased in-house DSF panel (SGC Frankfurt)", "test": "DSF", "type": "binding", "method": "as §1"}, "MAP2K6": {"biological_target": "T18, MAP2K6 (Homo sapiens, UniProt P52564)", "T18 construct": "purchased in-house DSF panel (SGC Frankfurt)", "test": "DSF", "type": "binding", "method": "as §1"}, "RPS6KA5": {"tested_on": "RPS6KA5", "test": "DSF", "type": "binding", "method": "as §1"}, "BMPR2": {"biological_target": "T19, BMPR2 (Homo sapiens, UniProt Q13873)", "T19 construct": "purchased in-house DSF panel (SGC Frankfurt)", "test": "DSF", "type": "binding", "method": "as §1"}, "SPRK1": {"biological_target": "T20, SPRK1 (Homo sapiens, UniProt Q96SB4)", "T20 construct": "purchased in-house DSF panel (SGC Frankfurt)", "test": "DSF", "type": "binding", "method": "as §1"}, "MAPK8": {"biological_target": "T21, MAPK8 (Homo sapiens, UniProt P45983)", "T21 construct": "purchased in-house DSF panel (SGC Frankfurt)", "test": "DSF", "type": "binding", "method": "as §1"}, "CSNK1D": {"biological_target": "T22, CSNK1D (Homo sapiens, UniProt P48730)", "T22 construct": "purchased in-house DSF panel (SGC Frankfurt)", "test": "DSF", "type": "binding", "method": "as §1"}, "MAPK14": {"biological_target": "T23, MAPK14 (Homo sapiens, UniProt Q16539)", "T23 construct": "purchased in-house DSF panel (SGC Frankfurt)", "test": "DSF", "type": "binding", "method": "as §1"}, "AAK1": {"biological_target": "T24, AAK1 (Homo sapiens, UniProt Q2M2I8)", "T24 construct": "purchased in-house DSF panel (SGC Frankfurt)", "test": "DSF", "type": "binding", "method": "as §1"}, "CAMK2B": {"biological_target": "T25, CAMK2B (Homo sapiens, UniProt Q13554)", "T25 construct": "purchased in-house DSF panel (SGC Frankfurt)", "test": "DSF", "type": "binding", "method": "as §1"}, "NEK7": {"biological_target": "T26, NEK7 (Homo sapiens, UniProt Q8TDX7)", "T26 construct": "purchased in-house DSF panel (SGC Frankfurt)", "test": "DSF", "type": "binding", "method": "as §1"}, "SRC": {"biological_target": "T27, SRC (Homo sapiens, UniProt P12931)", "T27 construct": "purchased in-house DSF panel (SGC Frankfurt)", "test": "DSF", "type": "binding", "method": "as §1"}, "DMPK1": {"biological_target": "T28, DMPK1 (Homo sapiens, UniProt Q09013)", "T28 construct": "purchased in-house DSF panel (SGC Frankfurt)", "test": "DSF", "type": "binding", "method": "as §1"}, "PIM3": {"biological_target": "T29, PIM3 (Homo sapiens, UniProt Q86V86)", "T29 construct": "purchased in-house DSF panel (SGC Frankfurt)", "test": "DSF", "type": "binding", "method": "as §1"}, "MAPK10": {"biological_target": "T30, MAPK10 (Homo sapiens, UniProt P53779)", "T30 construct": "purchased in-house DSF panel (SGC Frankfurt)", "test": "DSF", "type": "binding", "method": "as §1"}, "EPHA2": {"biological_target": "T31, EPHA2 (Homo sapiens, UniProt P29317)", "T31 construct": "purchased in-house DSF panel (SGC Frankfurt)", "test": "DSF", "type": "binding", "method": "as §1"}, "CSNK2A1": {"biological_target": "CSNK2A1 (Homo sapiens, UniProt P68400)"}, "MST4": {"biological_target": "T32, MST4 (Homo sapiens, UniProt Q9P289)", "T32 construct": "purchased in-house DSF panel (SGC Frankfurt)", "test": "DSF", "type": "binding"}},
  "data": [
    {"smiles": "N#CCc1ccc(Nc2nccc(Nc3cc(C4CC4)[nH]n3)n2)cc1", "note": "[compound 1, reference compound]", "values": [
      {"measurement": "ΔTm AKT3", "setting": "AKT3", "value": 1.4, "unit": "°C"},
      {"measurement": "Kinases with shifts > 5°C", "setting": "[1]", "value": 60}
    ]},
    {"smiles": "CN[C@@H]1C[C@H]2O[C@@](C)([C@@H]1OC)n1c3ccccc3c3c4c(c5c6ccccc6n2c5c31)C(=O)NC4", "note": "[staurosporine, reference compound]", "values": [
      {"measurement": "ΔTm AKT3", "setting": "AKT3", "value": 6.6, "unit": "°C"},
      {"measurement": "ΔTm MST3", "setting": "MST3", "value": 7.3, "unit": "°C"},
      {"measurement": "ΔTm NEK1", "setting": "NEK1", "value": -0.6, "unit": "°C"},
      {"measurement": "ΔTm MAP2K1", "setting": "MAP2K1", "value": 1.3, "unit": "°C"},
      {"measurement": "ΔTm DAPK3", "setting": "DAPK3", "value": 15.8, "unit": "°C"},
      {"measurement": "ΔTm TAF1", "setting": "TAF1", "value": 0.2, "unit": "°C"},
      {"measurement": "ΔTm CLK3", "setting": "CLK3", "value": 5.6, "unit": "°C"},
      {"measurement": "ΔTm GSG2", "setting": "GSG2", "value": 7.2, "unit": "°C"},
      {"measurement": "ΔTm MAP3K5", "setting": "MAP3K5", "value": 18.5, "unit": "°C"},
      {"measurement": "ΔTm RPS6KA6", "setting": "RPS6KA6", "value": -0.5, "unit": "°C"},
      {"measurement": "ΔTm PIM1", "setting": "PIM1", "value": 12.5, "unit": "°C"},
      {"measurement": "ΔTm MAP2K4", "setting": "MAP2K4", "value": 12.0, "unit": "°C"},
      {"measurement": "ΔTm MARK3", "setting": "MARK3", "value": 19.0, "unit": "°C"},
      {"measurement": "ΔTm CK2A2", "setting": "CK2A2", "value": 5.6, "unit": "°C"},
      {"measurement": "ΔTm MAPK9", "setting": "MAPK9", "value": 3.7, "unit": "°C"},
      {"measurement": "ΔTm MAPK15", "setting": "MAPK15", "value": 14.7, "unit": "°C"},
      {"measurement": "ΔTm UKL3", "setting": "UKL3", "value": 19.6, "unit": "°C"},
      {"measurement": "ΔTm RPS6KA1", "setting": "RPS6KA1", "value": 3.9, "unit": "°C"},
      {"measurement": "ΔTm CAMK2D", "setting": "CAMK2D", "value": 16.2, "unit": "°C"},
      {"measurement": "ΔTm GPRK5", "setting": "GPRK5", "value": 7.7, "unit": "°C"},
      {"measurement": "ΔTm MAP2K6", "setting": "MAP2K6", "value": 12.3, "unit": "°C"},
      {"measurement": "ΔTm RPS6KA5", "setting": "RPS6KA5", "value": 13.7, "unit": "°C"},
      {"measurement": "ΔTm BMPR2", "setting": "BMPR2", "value": 2.6, "unit": "°C"},
      {"measurement": "ΔTm SPRK1", "setting": "SPRK1", "value": 6.8, "unit": "°C"},
      {"measurement": "ΔTm MAPK8", "setting": "MAPK8", "value": 7.8, "unit": "°C"},
      {"measurement": "ΔTm CSNK1D", "setting": "CSNK1D", "value": 1.8, "unit": "°C"},
      {"measurement": "ΔTm MAPK14", "setting": "MAPK14", "value": 0.3, "unit": "°C"},
      {"measurement": "ΔTm AAK1", "setting": "AAK1", "value": 15.6, "unit": "°C"},
      {"measurement": "ΔTm CAMK2B", "setting": "CAMK2B", "value": 13.3, "unit": "°C"},
      {"measurement": "ΔTm NEK7", "setting": "NEK7", "value": 1.0, "unit": "°C"},
      {"measurement": "ΔTm SRC", "setting": "SRC", "value": 5.9, "unit": "°C"},
      {"measurement": "ΔTm DMPK1", "setting": "DMPK1", "value": 8.7, "unit": "°C"},
      {"measurement": "ΔTm PIM3", "setting": "PIM3", "value": 19.7, "unit": "°C"},
      {"measurement": "ΔTm MAPK10", "setting": "MAPK10", "value": 7.4, "unit": "°C"},
      {"measurement": "ΔTm EPHA2", "setting": "EPHA2", "value": 8.3, "unit": "°C"},
      {"measurement": "ΔTm CSNK2A1", "setting": "CSNK2A1", "value": 2.1, "unit": "°C"},
      {"measurement": "ΔTm MST4", "setting": "MST4", "value": 6.1, "unit": "°C"}
    ]}
  ]
}
